Source: publication PMC5120310, “In Silico Exploration for Novel Type-I Inhibitors of Tie-2/TEK: The Performance of Different Selection Strategy in Selecting Virtual Screening Candidates” (Scientific Reports, 2016)
pIC50: −log10 of the molar value.

Sequences of proteins named here, by UniProt entry; tags and fusion partners are left off. Residues count along the entry.
UniProt Q02763, 23-1124 limits assumed: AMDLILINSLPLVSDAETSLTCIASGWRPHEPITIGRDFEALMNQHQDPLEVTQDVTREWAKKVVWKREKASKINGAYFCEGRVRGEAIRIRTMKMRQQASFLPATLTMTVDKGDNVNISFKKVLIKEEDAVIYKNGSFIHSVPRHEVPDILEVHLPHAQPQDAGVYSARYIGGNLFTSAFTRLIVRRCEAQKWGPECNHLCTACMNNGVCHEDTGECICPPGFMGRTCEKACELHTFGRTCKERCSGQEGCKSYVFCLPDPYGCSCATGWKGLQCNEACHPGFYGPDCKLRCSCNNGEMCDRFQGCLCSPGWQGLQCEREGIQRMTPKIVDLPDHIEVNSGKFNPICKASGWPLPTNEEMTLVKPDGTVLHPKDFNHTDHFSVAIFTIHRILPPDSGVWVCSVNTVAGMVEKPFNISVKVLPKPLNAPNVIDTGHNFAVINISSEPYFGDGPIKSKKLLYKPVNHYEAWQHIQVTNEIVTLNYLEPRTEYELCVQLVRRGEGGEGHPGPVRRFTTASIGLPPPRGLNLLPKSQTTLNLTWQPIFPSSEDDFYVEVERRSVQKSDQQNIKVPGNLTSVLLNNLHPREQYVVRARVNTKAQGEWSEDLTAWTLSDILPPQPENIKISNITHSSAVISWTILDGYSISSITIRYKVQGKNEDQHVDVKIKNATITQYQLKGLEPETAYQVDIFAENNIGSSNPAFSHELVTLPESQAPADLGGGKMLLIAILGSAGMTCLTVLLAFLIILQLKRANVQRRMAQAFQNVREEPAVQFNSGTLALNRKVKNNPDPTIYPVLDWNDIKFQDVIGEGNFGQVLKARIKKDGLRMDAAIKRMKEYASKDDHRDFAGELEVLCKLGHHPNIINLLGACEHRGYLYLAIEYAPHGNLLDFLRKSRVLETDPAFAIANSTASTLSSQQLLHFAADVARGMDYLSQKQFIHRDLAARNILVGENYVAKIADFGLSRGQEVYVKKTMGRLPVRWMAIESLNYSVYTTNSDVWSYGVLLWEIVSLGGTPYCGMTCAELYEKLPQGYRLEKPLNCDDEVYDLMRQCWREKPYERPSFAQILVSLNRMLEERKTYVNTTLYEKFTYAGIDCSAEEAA

Molecular target: recombinant human Tie-2 protein (Homo sapiens, UniProt Q02763)
Assay: Z′-Lyte FRET enzymatic activity assay of Tie-2 kinase
Assay type: biochemical

Cc1ccc(Cl)cc1-c1ccc(C=NNc2nc3ccccc3s2)o1
Inhibition (%) @10 μg/ml (10 μg/mL preliminary screening, Table S1): 43.36±1.3% | Tie-2 inhibitory activity in words (active / inactive) (VS candidates of Strategy 1, preliminary screening at 10 μg/mL): active | pIC50 (read-out: IC50 (half-maximal inhibitory concentration), Tie-2 kinase, Z′-Lyte assay, 100 μM ATP, n ≥ 2 per concentration): 4.47
